Values of other authors as cited in US20120283096A1, “AGENT FOR IMPROVING PLANT GROWTH, SEEDS, AND METHOD FOR IMPROVING PLANT GROWTH” (Incorporated Administrative Agency National Agricu lture …, priority 2010, published 2012).
Read-outs that look alike come from different tables or passages of the source.

Conditions: in water, powder, cited from earlier work

For `[Ca+2].[O]=[Mo](=[O])([O-])[O-]` [Calcium molybdate], the Water solubility is given as “Slightly soluble (has a percentage of solubility of 10% by weight or lower with respect to water)” and the Water solubility (listed as calcium molybdate) is given as “slightly soluble”.
